Test results: paper PMC7723054
The list shows a part of the results.

T1: LIN28A (human?, UniProt Q9H9Z2 1-209)
T1 sequence: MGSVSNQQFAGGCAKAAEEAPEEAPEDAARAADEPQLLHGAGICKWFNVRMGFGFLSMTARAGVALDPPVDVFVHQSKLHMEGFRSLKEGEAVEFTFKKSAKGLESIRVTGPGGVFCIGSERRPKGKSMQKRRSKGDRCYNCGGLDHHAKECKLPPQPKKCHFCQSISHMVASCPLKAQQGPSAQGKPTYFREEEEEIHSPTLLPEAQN

T2: CIRBP (Homo sapiens, UniProt Q14011 1-172)
T2 sequence: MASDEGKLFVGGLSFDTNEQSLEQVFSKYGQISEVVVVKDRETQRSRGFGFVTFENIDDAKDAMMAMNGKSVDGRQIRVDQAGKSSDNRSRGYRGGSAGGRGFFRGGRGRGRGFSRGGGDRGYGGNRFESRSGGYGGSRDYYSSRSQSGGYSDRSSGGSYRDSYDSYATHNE

T3: DHX36 (Homo sapiens, UniProt Q9H2U1 1-1008)
T3 sequence: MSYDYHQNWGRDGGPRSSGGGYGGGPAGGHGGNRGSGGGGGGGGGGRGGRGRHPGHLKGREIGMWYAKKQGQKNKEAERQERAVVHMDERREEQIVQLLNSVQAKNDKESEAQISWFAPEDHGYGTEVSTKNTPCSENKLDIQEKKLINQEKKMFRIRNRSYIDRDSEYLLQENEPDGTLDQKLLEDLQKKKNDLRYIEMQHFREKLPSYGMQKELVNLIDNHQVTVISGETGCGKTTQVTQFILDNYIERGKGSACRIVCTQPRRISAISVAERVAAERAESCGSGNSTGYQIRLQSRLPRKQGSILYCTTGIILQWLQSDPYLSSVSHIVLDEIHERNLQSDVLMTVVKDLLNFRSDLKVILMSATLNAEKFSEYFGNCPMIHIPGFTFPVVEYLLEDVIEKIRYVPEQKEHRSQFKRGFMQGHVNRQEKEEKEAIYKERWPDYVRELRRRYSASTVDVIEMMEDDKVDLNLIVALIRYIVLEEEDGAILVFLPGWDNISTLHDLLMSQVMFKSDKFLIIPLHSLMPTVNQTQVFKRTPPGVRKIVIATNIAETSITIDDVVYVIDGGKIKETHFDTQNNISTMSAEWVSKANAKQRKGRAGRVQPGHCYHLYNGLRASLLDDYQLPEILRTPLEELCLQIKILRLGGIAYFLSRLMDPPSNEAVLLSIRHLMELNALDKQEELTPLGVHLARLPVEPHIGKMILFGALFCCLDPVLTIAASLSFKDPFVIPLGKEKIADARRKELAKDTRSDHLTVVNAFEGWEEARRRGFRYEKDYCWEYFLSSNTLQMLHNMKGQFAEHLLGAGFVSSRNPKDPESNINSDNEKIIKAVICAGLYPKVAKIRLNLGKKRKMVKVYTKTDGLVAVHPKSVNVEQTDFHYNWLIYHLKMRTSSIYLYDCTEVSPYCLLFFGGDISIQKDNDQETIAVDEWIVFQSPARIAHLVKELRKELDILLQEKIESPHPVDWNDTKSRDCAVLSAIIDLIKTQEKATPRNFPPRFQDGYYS

B1: hsa-mir-6893 (structured_RNA)
RNA: GGGAAUUACCAUAGGGACCGAGACAAACGGUGUACGAAGUUUCAGCAGGGUGGAGCCCACUGUGGCUCCUGACUCAGCCCUGCUGAAGCUUCGUGCAC
B2: hsa-mir-7152 (structured_RNA)
RNA: GGGACGAGAGAUUCUGAUGCCUAAACUGGGUGUACGAAGUUUCAGCCAGACCAUGCCACAUCCGUCUGGCUGAAGCUUCGUGCAC
B3: hsa-mir-6783 (structured_RNA)
RNA: GGGAUAAGCGAUAUGUCCAGCUAAGCACGGUGUACGAAGUUUCAGCGAUCCGGGAACCCACAGCCCCGUUCGCUGAAGCUUCGUGCAC
B4: hsa-mir-215 (structured_RNA)
RNA: GGGAGACAAUCCUGGCAACGCGAAACUAGGUGUACGAAGUUUCAGCCAGACAAUAUAGCUGAGUUUGUCUGGCUGAAGCUUCGUGCAC
B5: hsa-mir-4728 (structured_RNA)
RNA: GGGAUUACGCCAGGAGCUACCGAGAAAAGGUGUACGAAGUUUCAGCCAAGCACACAGGGCCUGGGACUAGCAUGGCUGAAGCUUCGUGCAC
B6: hsa-mir-548aa-2 (structured_RNA)
RNA: GGGAAAGGUCCCUCGCCUCCAUGUAAAGGGUGUACGAAGUUUCAGCUUUUGCCAUUACUUUCAAUGGCAAAAGCUGAAGCUUCGUGCAC
B7: hsa-mir-455 (structured_RNA)
RNA: GGGAGCAUAGGGUGGCCAACUACAGAGAGGUGUACGAAGUUUCAGCCUACAUCGUGGAAGCCAGCACCAUGCAGGCUGAAGCUUCGUGCAC
B8: hsa-mir-5697 (structured_RNA)
RNA: GGGACAUGCCUAAGGUAAAGUAAUGCCAGGUGUACGAAGUUUCAGCAAGGGUGUAUGAGAGAUCAACCCUUGCUGAAGCUUCGUGCAC
B9: hsa-mir-6743 (structured_RNA)
RNA: GGGAGAAACGGUUCCAAAGACACUCCGUGGUGUACGAAGUUUCAGCGGCCCCAGGAAGAAGGGCCUGGUGGAGCCGCUGAAGCUUCGUGCAC
B10: PARIS_ID40 (structured_RNA)
RNA: GGGAAUUCGACCAUGGGAACGAGCAUUCGGUGUACGAAGUUUCAGCCCUCUGGGUGCAGAGCUGAGGCACCCAGAGGGCUGAAGCUUCGUGCAC
B11: hsa-mir-938 (structured_RNA)
RNA: GGGACAGGGCAUGCCUCUGAUAGCAAAUGGUGUACGAAGUUUCAGCCAGUGCACCUUCAUGAACCGGCUGAAGCUUCGUGCAC

target: U1A (Homo sapiens, UniProt P09012); experiment: FOREST: bead pull-down of RNA structure library v1, barcode microarray; U1A/LIN28A: 20 mM HEPES pH 7.5, 80 mM KCl, 20 mM NaCl, 10% glycerol, 2 mM DTT, 0.1 ug/uL BSA, 4 C; BG4/CIRBP/DHX36: 10 mM Tris-HCl pH 7.5, 100 mM KCl (or LiCl),; high values mean tight binding

Binder | binding signal
B1 | 0.0149 z-score
B2 | 0.00734 z-score
B3 | 0.00931 z-score
B4 | 0.0153 z-score
B5 | 1.67 z-score
B6 | 0.00552 z-score
B7 | 0.0137 z-score
B8 | 0.0127 z-score
B9 | 0.007 z-score
B10 | 0.0141 z-score
B11 | 3.07 z-score

target: T1, LIN28A; experiment: as above

Binder | binding signal
B1 | 0.672 z-score
B2 | 1.64 z-score
B3 | 0.681 z-score
B4 | -0.192 z-score
B5 | 1.61 z-score
B6 | -1.36 z-score
B7 | -0.31 z-score
B8 | -0.308 z-score
B9 | -0.183 z-score
B10 | -0.499 z-score
B11 | -0.618 z-score

target: T2, CIRBP; experiment: as above

Binder | binding signal
B1 | 0.755 z-score
B2 | -0.296 z-score
B3 | 1.01 z-score
B4 | -1.01 z-score
B5 | 2.9 z-score
B6 | 0.747 z-score
B7 | 1.13 z-score
B8 | 0.997 z-score
B9 | -0.501 z-score
B10 | -0.0816 z-score
B11 | -0.636 z-score

target: T3, DHX36; experiment: as above

Binder | binding signal
B1 | 0.482 z-score
B2 | -1.06 z-score
B3 | 0.0688 z-score
B4 | -0.8 z-score
B5 | 1.73 z-score
B6 | -0.586 z-score
B7 | 0.77 z-score
B8 | -0.00865 z-score
B9 | -0.00886 z-score
B10 | -0.337 z-score
B11 | -1.16 z-score
